Laboratory results from US5532218A, “3'-aziridino-anthracycline derivatives” (Farmitalia Carlo Erba S.R.L., priority 1993, dated 1996).

What was measured:
[1] = system: LoVo (colon adenocarcinoma); conditions: both cell lines
Description: (§1) The citotoxic activity is reported as IC50, the concentration inhibiting 50% of colony formation, calculated on concentration response curves. Resistance index R.I. is the ratio between the IC50 on resistant cells and the IC50 on sensitive cells.

[2] = system: LoVo/DX (colon adenocarcinoma resistant to doxorubicin); conditions: both cell lines
Description: as §1

3'-deamino-3'-[1-aziridinyl]-4'-O-methansulfonyl-14-nicotinate-doxorubicin [Compound 2a]
cytotoxic activity against LoVo, in words [1]: high activity
cytotoxic activity against LoVo/DX, in words [2]: high activity
